One experiment deals with spotted gar BRS3 (sBRS3). The experiment can be described thus: Intracellular calcium assay (WT and mutants). Type of experiment: cell-based, Lepisosteus oculatus. The settings on record: 10 nM peptide, HEK293, Fluo8, sBRS3. On the procedure: (§1) Intracellular calcium was measured using the non-wash calcium assay Fluo8 kit (ab112129, Abcam) according to the manufacturer’s instructions. Briefly, HEK293 cells were seeded in 24-well plates and were transfected with GRPR, NMBR, BRS3, or the empty vector plasmid pcDNA3.1-V5-His (300 ng) and incubated overnight at 37°C with 5% CO2. The next day, the cells were replated into a 96-well assay plate (black plate and clear bottom). After 12 h, growth media were aspirated, and calcium dye was added. Following incubation for 30 min at 37°C and 10 min at room temperature, GRP (10 nM) or NMB (10 nM) was added, and assay plates were placed into a fluorescence kinetic plate reader (Hamamatsu) immediately. The basal fluorescence intensity was recorded 15 times at 1 Hz for […]. The results were normalized to the average basal fluorescence intensity in ratio, and the peak response was used for the result calculation. Calcium fold was calculated using no stimulation data as standard value.

Amino acid sequences for entries named in this document (tags omitted).
UniProt P28336, whole entry, species assumed: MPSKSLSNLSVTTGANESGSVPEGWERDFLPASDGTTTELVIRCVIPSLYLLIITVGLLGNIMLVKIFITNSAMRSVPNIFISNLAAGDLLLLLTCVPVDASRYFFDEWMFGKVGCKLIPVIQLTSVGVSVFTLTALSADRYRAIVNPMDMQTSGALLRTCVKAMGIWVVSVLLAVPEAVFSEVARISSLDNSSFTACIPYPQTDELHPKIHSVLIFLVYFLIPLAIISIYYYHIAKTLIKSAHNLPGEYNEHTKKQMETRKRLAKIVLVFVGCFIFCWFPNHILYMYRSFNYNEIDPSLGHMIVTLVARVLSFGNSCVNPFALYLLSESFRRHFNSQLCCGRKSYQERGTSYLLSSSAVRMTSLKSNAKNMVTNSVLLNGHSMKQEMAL

The subject of another experiment is human BRS3 (hBRS3). The experiment can be described thus: Intracellular calcium assay (WT and mutants). Type of experiment: cell-based. The settings on record: 10 nM peptide, HEK293, Fluo8, hBRS3. On the procedure:
as §1
(In general: A change in cytosolic calcium serves as a functional read-out for many receptors and channels.)

Another experiment concerns mouse BRS3 (mBRS3). Briefly: Intracellular calcium assay (WT and mutants). The settings on record: 10 nM peptide, HEK293, Fluo8, mBRS3. Type of experiment: cell-based. On the procedure: as §1
The next experiment deals with turtle BRS3 (tBRS3). Briefly: Intracellular calcium assay (WT and mutants). The following applies: 10 nM peptide, HEK293, Fluo8, tBRS3. It counts as cell-based, Chrysemys picta. On the procedure: as §1
The subject of a further experiment is chicken BRS3 (cBRS3). Briefly: Intracellular calcium assay (WT and mutants). It counts as cell-based, Gallus gallus. The following applies: 10 nM peptide, HEK293, Fluo8, cBRS3. On the procedure: as §1
Another experiment relates to aardvark BRS3 (aBRS3). The experiment can be described thus: Intracellular calcium assay (WT and mutants). Type of experiment: cell-based, Orycteropus afer. The following applies: 10 nM peptide, HEK293, Fluo8, aBRS3. On the procedure:
as §1

The target in a further experiment is T1, NMBR (Homo sapiens, UniProt P28336).
T1 construct: HA; expressed in transfected cells; host or cells: HEK293
Briefly: Intracellular calcium assay. It counts as cell-based. The settings on record: 10 nM peptide, HEK293, Fluo8, NMBR. On the procedure: as §1

Turning to neuromedin B [NMB], the Calcium fold was found to be 3.5144 fold in the experiment on spotted gar BRS3 (sBRS3) (replicate 1); 3.9449 fold in the experiment with spotted gar BRS3 (sBRS3) (replicate 2); 4.3608 fold in the experiment with spotted gar BRS3 (sBRS3) (replicate 3); 1.1617 fold in the experiment on human BRS3 (hBRS3) (replicate 1); 1.0053 fold with human BRS3 (hBRS3) (replicate 2); 0.9127 fold in the experiment with human BRS3 (hBRS3) (replicate 3). The Calcium fold in the experiment with mouse BRS3 (mBRS3) (replicate 1) is recorded as 1.1267 fold; with mouse BRS3 (mBRS3) (replicate 2) it was 1.2985 fold; in the experiment with mouse BRS3 (mBRS3) (replicate 3) it was 0.9236 fold; in the experiment with turtle BRS3 (tBRS3) (replicate 1), 3.2567 fold; with turtle BRS3 (tBRS3) (replicate 2) it was 3.7937 fold; with turtle BRS3 (tBRS3) (replicate 3), 3.7127 fold. In addition, the Calcium fold with chicken BRS3 (cBRS3) (replicate 1) is listed as 3.3988 fold; in the experiment on chicken BRS3 (cBRS3) (replicate 2), 3.5333 fold; with chicken BRS3 (cBRS3) (replicate 3), 3.9569 fold; in the experiment on aardvark BRS3 (aBRS3) (replicate 1), 1.1428 fold; in the experiment on aardvark BRS3 (aBRS3) (replicate 2) it was 1.1171 fold; with aardvark BRS3 (aBRS3) (replicate 3) it was 1.219 fold. Also, the results for the Calcium fold on NMBR (replicate 1), at NMBR (replicate 2) and at NMBR (replicate 3) were 3.5176 fold, 3.9647 fold and 4.173 fold, respectively.
